Antibody variant affinities, Ab-14 light chain, assay 1

From the AlphaSeq antibody data of Engelhart et al. 2022 (doi:10.1038/s41597-022-01779-4), copy in the FLAb collection.

Binding partner: SARS-CoV-2 spike HR2 peptide, sequence PDVDLGDISGINAS.

The variants keep the heavy chain, the linker and the frameworks of Ab-14 (scFv order VH, three GGGGS repeats, VL).
VH: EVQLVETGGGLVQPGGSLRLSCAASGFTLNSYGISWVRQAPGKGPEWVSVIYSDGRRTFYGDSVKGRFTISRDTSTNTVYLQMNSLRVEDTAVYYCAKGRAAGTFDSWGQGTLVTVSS
VL: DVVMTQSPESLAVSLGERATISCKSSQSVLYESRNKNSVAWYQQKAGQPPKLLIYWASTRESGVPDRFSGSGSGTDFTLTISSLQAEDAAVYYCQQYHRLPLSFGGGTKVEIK

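Phage display of a naive human antibody library on the peptide gave the parent. AAYL50 was designed without a model: most single CDR substitutions and a random sample of double and triple ones. Affinity was read by AlphaSeq, a pooled yeast mating assay with surface-displayed partners. After mating in shaken culture at 30 °C for 16 h, diploids were selected and their barcode pairs sequenced. The ratio of observed to expected reads was calibrated, replicate by replicate, on BCL2-family standards whose Kd was known from biolayer interferometry. The assay was run in three technical replicates.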

The parent's light chain CDRs are KSSQSVLYESRNKNSVA, WASTRES, QQYHRLPLS; each variant's own CDRs replace them letter for letter. Affinities are written as log10 Kd with Kd in nM; a lower number is a better binder. The mean shown is taken over the replicates in which the pair was detected. A pair that was not seen in that replicate is written "nd"; this usually means weak binding, but a binder can also be missed. Three control strains display no target. For library AAYL50, 18% of the pairings with them gave a signal, with a median of 4.19 and one signal in twenty below 2.99, so weak values seen in few replicates may be background. The control count says in how many pairings with the empty strains this scFv gave a signal, with their mean in brackets. Parent in this assay: reference entry 0.65, copy in this library 1.68.

{"CDR-L1": "ESSASVLYESRNKNSVA", "CDR-L2": "WASTRES", "CDR-L3": "QQYHRLPLY", "replicates, log10 nM": "1.68 / 1.53 / 1.49", "log10 Kd (nM), mean": "1.56", "signal with controls": "2/9 (4.90)"}
{"CDR-L1": "DSSQSVLYESCNKNSVN", "CDR-L2": "WASTRES", "CDR-L3": "QQYHRLPLS", "replicates, log10 nM": "nd / 3.95 / nd", "log10 Kd (nM), mean": "3.95", "signal with controls": "5/9 (4.01)"}
{"CDR-L1": "KSRQSVLYESRNKNSVA", "CDR-L2": "WYSSRES", "CDR-L3": "QQYHRLPLS", "replicates, log10 nM": "nd / nd / 4.04", "log10 Kd (nM), mean": "4.04", "signal with controls": "1/9 (2.24)"}
{"CDR-L1": "KSSQSVLYESRNKNSVT", "CDR-L2": "WASTRES", "CDR-L3": "QTYHRLPVS", "replicates, log10 nM": "nd / nd / 2.91", "log10 Kd (nM), mean": "2.91", "signal with controls": "0/9"}
{"CDR-L1": "KSSQSVLHESRNKNSVA", "CDR-L2": "WASTGES", "CDR-L3": "QVYHRLPLS", "replicates, log10 nM": "nd / nd / nd", "log10 Kd (nM), mean": "nd", "signal with controls": "0/9"}
{"CDR-L1": "KSSQSVPQESRNVNSVA", "CDR-L2": "WASTRES", "CDR-L3": "QQYHRLPLS", "replicates, log10 nM": "1.61 / 1.48 / 1.38", "log10 Kd (nM), mean": "1.49", "signal with controls": "0/9"}
{"CDR-L1": "KSSQSPLYESRNKNSVA", "CDR-L2": "WASTRES", "CDR-L3": "QKYHRLPNS", "replicates, log10 nM": "4.71 / nd / nd", "log10 Kd (nM), mean": "4.71", "signal with controls": "3/9 (3.88)"}
{"CDR-L1": "KSSQSVLYESRNKNSVA", "CDR-L2": "WASDRES", "CDR-L3": "QQYHRLHLS", "replicates, log10 nM": "2.62 / 3.33 / 3.30", "log10 Kd (nM), mean": "3.08", "signal with controls": "6/9 (4.48)"}
{"CDR-L1": "KSSQSVLYESRNKISSA", "CDR-L2": "WASTRES", "CDR-L3": "QQYHRLPLS", "replicates, log10 nM": "nd / nd / nd", "log10 Kd (nM), mean": "nd", "signal with controls": "0/9"}
{"CDR-L1": "KSSQSVLYESENKNSVA", "CDR-L2": "WASTREF", "CDR-L3": "QQYHRLPLS", "replicates, log10 nM": "0.35 / 0.64 / 0.52", "log10 Kd (nM), mean": "0.51", "signal with controls": "5/9 (4.79)"}
{"CDR-L1": "KSSQSVLYDSRNKNSVA", "CDR-L2": "WASTRPS", "CDR-L3": "QQYHRKPLS", "replicates, log10 nM": "3.35 / 3.40 / 4.97", "log10 Kd (nM), mean": "3.91", "signal with controls": "1/9 (4.06)"}
{"CDR-L1": "KSSQSVLYKSRNKNSVA", "CDR-L2": "WASTRMS", "CDR-L3": "QQCHRLPLS", "replicates, log10 nM": "nd / 3.51 / nd", "log10 Kd (nM), mean": "3.51", "signal with controls": "4/9 (4.81)"}
{"CDR-L1": "KSSQSVLLESRNKYSVA", "CDR-L2": "WASTRES", "CDR-L3": "QQYHRLPHS", "replicates, log10 nM": "nd / nd / nd", "log10 Kd (nM), mean": "nd", "signal with controls": "0/9"}
{"CDR-L1": "KSSQSVLYESRNKNFVA", "CDR-L2": "WASTRES", "CDR-L3": "QQYHRLLLV", "replicates, log10 nM": "4.47 / 4.06 / nd", "log10 Kd (nM), mean": "4.26", "signal with controls": "3/9 (3.95)"}
{"CDR-L1": "QSSQSVLYESRNKNSVA", "CDR-L2": "WASTRIS", "CDR-L3": "QQYTRLPLS", "replicates, log10 nM": "1.49 / 1.72 / 1.66", "log10 Kd (nM), mean": "1.62", "signal with controls": "3/9 (3.90)"}
{"CDR-L1": "KWSQSVLYMSRNKNSVA", "CDR-L2": "WASTRES", "CDR-L3": "QQAHRLPLS", "replicates, log10 nM": "4.04 / 2.56 / 2.23", "log10 Kd (nM), mean": "2.94", "signal with controls": "2/9 (4.62)"}
{"CDR-L1": "KSSQSVLYESRNKNSVA", "CDR-L2": "WASTRPS", "CDR-L3": "QQYHRLPLS", "replicates, log10 nM": "1.54 / 1.52 / 1.64", "log10 Kd (nM), mean": "1.57", "signal with controls": "6/9 (4.64)"}
{"CDR-L1": "PSSQSVLYESRNKNSVA", "CDR-L2": "WASTRES", "CDR-L3": "QQDIRLPLS", "replicates, log10 nM": "nd / nd / nd", "log10 Kd (nM), mean": "nd", "signal with controls": "1/9 (2.79)"}
{"CDR-L1": "KSSQSVLYESRNKNSMA", "CDR-L2": "WASTRES", "CDR-L3": "QQYHRLPLS", "replicates, log10 nM": "nd / nd / nd", "log10 Kd (nM), mean": "nd", "signal with controls": "0/9"}
{"CDR-L1": "KSSQSVLYESRNKNLVA", "CDR-L2": "WASTRES", "CDR-L3": "QQYADLPLS", "replicates, log10 nM": "nd / nd / nd", "log10 Kd (nM), mean": "nd", "signal with controls": "0/9"}
{"CDR-L1": "KSSQSVLYESRNYNSVA", "CDR-L2": "WRSTRES", "CDR-L3": "QQYHRLPLS", "replicates, log10 nM": "2.64 / 3.64 / nd", "log10 Kd (nM), mean": "3.14", "signal with controls": "1/9 (3.48)"}
{"CDR-L1": "KYSQQVLYESRNKNSVA", "CDR-L2": "WESTRES", "CDR-L3": "QQYHRLPLS", "replicates, log10 nM": "2.88 / 3.80 / 3.39", "log10 Kd (nM), mean": "3.35", "signal with controls": "1/9 (3.46)"}
{"CDR-L1": "KSSQSVLYESRNKNSVA", "CDR-L2": "WASWRES", "CDR-L3": "QQYHYLRLS", "replicates, log10 nM": "1.33 / 1.40 / 1.10", "log10 Kd (nM), mean": "1.28", "signal with controls": "1/9 (3.58)"}
{"CDR-L1": "KSSQSVLYGSRNKNSVA", "CDR-L2": "WASTKES", "CDR-L3": "MQYHRLPLS", "replicates, log10 nM": "5.66 / nd / 5.15", "log10 Kd (nM), mean": "5.40", "signal with controls": "2/9 (4.45)"}
{"CDR-L1": "KSSQSVTYESRNKNSVA", "CDR-L2": "WASTRES", "CDR-L3": "QQYHRTPWS", "replicates, log10 nM": "1.04 / 1.19 / 1.20", "log10 Kd (nM), mean": "1.14", "signal with controls": "4/9 (3.53)"}
{"CDR-L1": "KSSQSVLYESRNENSVA", "CDR-L2": "WASTRSV", "CDR-L3": "QQYHRLPLS", "replicates, log10 nM": "0.61 / -0.01 / 0.24", "log10 Kd (nM), mean": "0.28", "signal with controls": "0/9"}
{"CDR-L1": "KSVCSVLYESRYKNSVA", "CDR-L2": "WASTRES", "CDR-L3": "QQYHRLPLS", "replicates, log10 nM": "nd / nd / nd", "log10 Kd (nM), mean": "nd", "signal with controls": "0/9"}
{"CDR-L1": "KSSQSVLCESRNKNSFA", "CDR-L2": "WASTRES", "CDR-L3": "QQWHRLPLS", "replicates, log10 nM": "4.09 / nd / nd", "log10 Kd (nM), mean": "4.09", "signal with controls": "0/9"}
{"CDR-L1": "KSSQSRLYESRNKNSVA", "CDR-L2": "WASTRES", "CDR-L3": "QYVHRLPLS", "replicates, log10 nM": "1.84 / 1.99 / 2.42", "log10 Kd (nM), mean": "2.09", "signal with controls": "0/9"}
{"CDR-L1": "KSSQSVLYESRNKNTVA", "CDR-L2": "WASTREM", "CDR-L3": "QQYHRLPAS", "replicates, log10 nM": "nd / 3.45 / nd", "log10 Kd (nM), mean": "3.45", "signal with controls": "3/9 (4.57)"}
{"CDR-L1": "KSSQSVLYESRAKNSWA", "CDR-L2": "WASTEES", "CDR-L3": "QQYHRLPLS", "replicates, log10 nM": "nd / nd / nd", "log10 Kd (nM), mean": "nd", "signal with controls": "2/9 (3.50)"}
{"CDR-L1": "KSSQSVLRESRNKNSVA", "CDR-L2": "GASTRES", "CDR-L3": "QQYHYLPLS", "replicates, log10 nM": "1.43 / 1.20 / 1.46", "log10 Kd (nM), mean": "1.36", "signal with controls": "0/9"}

The 2 strongest on average among those seen in every replicate, once more:

{"CDR-L1": "KSSQSVLYESRNENSVA", "CDR-L2": "WASTRSV", "CDR-L3": "QQYHRLPLS", "replicates, log10 nM": "0.61 / -0.01 / 0.24", "log10 Kd (nM), mean": "0.28", "signal with controls": "0/9"}
{"CDR-L1": "KSSQSVLYESENKNSVA", "CDR-L2": "WASTREF", "CDR-L3": "QQYHRLPLS", "replicates, log10 nM": "0.35 / 0.64 / 0.52", "log10 Kd (nM), mean": "0.51", "signal with controls": "5/9 (4.79)"}